Measurements from US20240360179A1, “STAPLED PEPTIDES AND METHODS THEREOF” (FOG PHARMACEUTICALS, INC., priority 2021, published 2024).

The chains behind the UniProt entries cited, without tags or fusion partners.
UniProt P35222, whole entry: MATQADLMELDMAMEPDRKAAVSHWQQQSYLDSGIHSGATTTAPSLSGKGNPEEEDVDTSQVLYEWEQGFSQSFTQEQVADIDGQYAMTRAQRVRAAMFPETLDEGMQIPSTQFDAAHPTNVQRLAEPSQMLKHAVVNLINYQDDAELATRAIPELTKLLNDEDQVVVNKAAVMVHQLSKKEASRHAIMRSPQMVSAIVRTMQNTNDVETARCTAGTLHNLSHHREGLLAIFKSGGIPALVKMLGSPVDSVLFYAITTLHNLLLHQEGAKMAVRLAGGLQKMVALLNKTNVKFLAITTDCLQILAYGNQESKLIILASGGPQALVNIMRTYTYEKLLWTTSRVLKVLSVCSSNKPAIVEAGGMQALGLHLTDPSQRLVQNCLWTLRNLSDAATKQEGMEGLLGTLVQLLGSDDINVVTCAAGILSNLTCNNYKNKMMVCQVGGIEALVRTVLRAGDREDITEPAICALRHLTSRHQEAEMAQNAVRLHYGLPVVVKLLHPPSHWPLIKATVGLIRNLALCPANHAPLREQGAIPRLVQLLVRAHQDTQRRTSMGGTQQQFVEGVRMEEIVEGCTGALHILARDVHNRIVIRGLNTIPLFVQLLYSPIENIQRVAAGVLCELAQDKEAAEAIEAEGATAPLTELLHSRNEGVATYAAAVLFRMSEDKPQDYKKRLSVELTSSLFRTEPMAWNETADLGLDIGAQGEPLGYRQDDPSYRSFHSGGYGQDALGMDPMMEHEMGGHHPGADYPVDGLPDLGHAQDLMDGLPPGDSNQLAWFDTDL

target: T1, full-length B-Catenin (Uniprot ID P35222) (Homo sapiens, UniProt P35222); assay type: binding; conditions: competition fluorescence polarization; read-out: beta-Catenin FP IC50
T1 construct: 10 nM full-length B-Catenin (Uniprot ID P35222)

Row | Substance | IC50
1 | Ac-PL3-Asp-Npg-B5-Asp-3COOHF-Aib-Ala-3ClF-Lys*3-PyrS2-3Thi-BztA-GlnR*3-Ala-NH2 [I-577] | < 50 nM
2 | Ac-PL3-Asp-Npg-B5-Asp-3COOHF-Aib-Ala-3FF-Lys*3-PyrS2-3Thi-BztA-GlnR*3-Ala-NH2 [I-575] | < 50 nM
3 | Ac-PL3-Asp-Npg-B5-Asp-3COOHF-Aib-Ala-3MeF-Lys*3-PyrS2-3Thi-BztA-GlnR*3-Ala-NH2 [I-591] | < 50 nM
4 | Ac-PL3-Asp-Npg-B5-Asp-3COOHF-Aib-Ala-4BrF-Lys*3-PyrS2-3Thi-BztA-GlnR*3-Ala-NH2 [I-573] | < 50 nM
5 | Ac-PL3-Asp-Npg-B5-Asp-3COOHF-Aib-Ala-4CNF-Lys*3-PyrS2-3Thi-BztA-GlnR*3-Ala-NH2 [I-585] | < 50 nM
6 | Ac-PL3-Asp-Npg-B5-Asp-3COOHF-Aib-Ala-4ClF-Lys*3-PyrS2-3Thi-BztA-GlnR*3-Ala-NH2 [I-571] | < 50 nM
7 | Ac-PL3-Asp-Npg-B5-Asp-3COOHF-Aib-Ala-4FF-Lys*3-PyrS2-3Thi-BztA-GlnR*3-Ala-NH2 [I-569] | < 50 nM
8 | Ac-PL3-Asp-Npg-B5-Asp-3COOHF-Aib-Ala-4MeF-Lys*3-PyrS2-3Thi-BztA-GlnR*3-Ala-NH2 [I-589] | < 50 nM
9 | Ac-PL3-Asp-Npg-B5-Asp-3COOHF-Aib-Ala-Aic-Lys*3-PyrS2-3Thi-BztA-GlnR*3-Ala-NH2 [I-593] | > 1000 nM
10 | Ac-PL3-Asp-Npg-B5-Asp-3COOHF-Aib-Ala-Phe-Lys*3-Az3-2F3MeF-BztA-GlnR*3-Ala-NH2 [I-946] | < 50 nM
11 | Ac-PL3-Asp-Npg-B5-Asp-3COOHF-Aib-Ala-Phe-Lys*3-PyrS2-2ClF-2NapA-GlnR*3-Ala-NH2 [I-488] | < 50 nM
12 | Ac-PL3-Asp-Npg-B5-Asp-3COOHF-Aib-Ala-Phe-Lys*3-PyrS2-2F3MeF-34ClF-GlnR*3-Phe-NH2 [I-866] | 50 to 200 nM
13 | Ac-PL3-Asp-Npg-B5-Asp-3COOHF-Aib-Ala-Phe-Lys*3-PyrS2-2F3MeF-BztA-GlnR*3-Lys-NH2 [I-1628] | < 50 nM
14 | Ac-PL3-Asp-Npg-B5-Asp-3COOHF-Aib-Ala-Phe-Lys*3-PyrS2-2FF-34ClF-GlnR*3-NH2 [I-1537] | < 50 nM
15 | Ac-PL3-Asp-Npg-B5-Asp-3COOHF-Aib-Ala-Phe-Lys*3-PyrS2-2FF-BztA-GlnR*3-NH2 [I-1541] | < 50 nM
16 | Ac-PL3-Asp-Npg-B5-Asp-3COOHF-Aib-Ala-Phe-Lys*3-PyrS2-2MeF-BztA-GlnR*3-NH2 [I-1545] | 200 to 750 nM
17 | Ac-PL3-Asp-Npg-B5-Asp-3COOHF-Aib-Ala-Phe-Lys*3-PyrS2-2NH2F-BztA-GlnR*3-Ala-NH2 [I-1735] | 200 to 750 nM
18 | Ac-PL3-Asp-Npg-B5-Asp-3COOHF-Aib-Ala-Phe-Lys*3-PyrS2-2NH2F-BztA-GlnR*3-Ala-NH2 [I-1736] | < 50 nM
19 | Ac-PL3-Asp-Npg-B5-Asp-3COOHF-Aib-Ala-Phe-Lys*3-PyrS2-2PhF-34ClF-GlnR*3-Ala-NH2 [I-950] | 50 to 200 nM
20 | Ac-PL3-Asp-Npg-B5-Asp-3COOHF-Aib-Ala-Phe-Lys*3-PyrS2-2PhF-34ClF-GlnR*3-Leu-Ser-NH2 [I-954] | 200 to 750 nM

Row | Substance | IC50
21 | Ac-PL3-Asp-Npg-B5-Asp-3COOHF-Aib-Ala-Phe-Lys*3-PyrS2-2PhF-BztA-GlnR*3-Ala-NH2 [I-949] | 50 to 200 nM
22 | Ac-PL3-Asp-Npg-B5-Asp-3COOHF-Aib-Ala-Phe-Lys*3-PyrS2-2PhF-BztA-GlnR*3-Leu-Ser-NH2 [I-952] | 200 to 750 nM
23 | Ac-PL3-Asp-Npg-B5-Asp-3COOHF-Aib-Ala-Phe-Lys*3-PyrS2-3Thi-2NapA-GlnR*3-Ala-NH2 [I-486] | < 50 nM
24 | Ac-PL3-Asp-Npg-B5-Asp-3COOHF-Aib-Ala-Phe-Lys*3-PyrS2-3Thi-34ClF-GlnR*3-Ala-Ala-Ala-[mPEG8]-Lys [I-1707] | < 50 nM
25 | Ac-PL3-Asp-Npg-B5-Asp-3COOHF-Aib-Ala-Phe-Lys*3-PyrS2-3Thi-34MeF-GlnR*3-NH2 [I-1098] | < 50 nM
26 | Ac-PL3-Asp-Npg-B5-Asp-3COOHF-Aib-Ala-Phe-Lys*3-PyrS2-3Thi-BztA-GlnR*3-Aib-Aib-NH2 [I-410] | < 50 nM
27 | Ac-PL3-Asp-Npg-B5-Asp-3COOHF-Aib-Ala-Phe-Lys*3-PyrS2-3Thi-BztA-GlnR*3-Ala-Ala-Ala-Ala-Ala-Ala-Ala-NH2 [I-784] | < 50 nM
28 | Ac-PL3-Asp-Npg-B5-Asp-3COOHF-Aib-Ala-Phe-Lys*3-PyrS2-3Thi-BztA-GlnR*3-Ala-Ala-Ala-GlnR**3-Ala-Ala-Ala-Lys**3-NH2 [I-1160] | < 50 nM
29 | Ac-PL3-Asp-Npg-B5-Asp-3COOHF-Aib-Ala-Phe-Lys*3-PyrS2-3Thi-BztA-GlnR*3-Ala-Ala-Ala-Leu-Leu-Leu-NH2 [I-810] | 50 to 200 nM
30 | Ac-PL3-Asp-Npg-B5-Asp-3COOHF-Aib-Ala-Phe-Lys*3-PyrS2-3Thi-BztA-GlnR*3-Ala-Ala-Ala-Leu-Leu-NH2 [I-808] | 50 to 200 nM
31 | Ac-PL3-Asp-Npg-B5-Asp-3COOHF-Aib-Ala-Phe-Lys*3-PyrS2-3Thi-BztA-GlnR*3-Ala-Ala-Ala-[Ac]Lys-NH2 [I-1394] | < 50 nM
32 | Ac-PL3-Asp-Npg-B5-Asp-3COOHF-Aib-Ala-Phe-Lys*3-PyrS2-3Thi-BztA-GlnR*3-Ala-Ala-Ala-[PEG4triPEG16]Lys-NH2 [I-1525] | < 50 nM
33 | Ac-PL3-Asp-Npg-B5-Asp-3COOHF-Aib-Ala-Phe-Lys*3-PyrS2-3Thi-BztA-GlnR*3-Ala-Ala-Ala-[PEG4triPEG36]Lys-NH2 [I-1526] | < 50 nM
34 | Ac-PL3-Asp-Npg-B5-Asp-3COOHF-Aib-Ala-Phe-Lys*3-PyrS2-3Thi-BztA-GlnR*3-Ala-Ala-Ala-[mPEG8]Lys-NH2 [I-1408] | < 50 nM
35 | Ac-PL3-Asp-Npg-B5-Asp-3COOHF-Aib-Ala-Phe-Lys*3-PyrS2-3Thi-BztA-GlnR*3-Ala-Ala-Ala-[mPEG16]Lys-NH2 [I-1409] | < 50 nM
36 | Ac-PL3-Asp-Npg-B5-Asp-3COOHF-Aib-Ala-Phe-Lys*3-PyrS2-3Thi-BztA-GlnR*3-Ala-Ala-Ala-[mPEG37]Lys-NH2 [I-1410] | < 50 nM
37 | Ac-PL3-Asp-Npg-B5-Asp-3COOHF-Aib-Ala-Phe-Lys*3-PyrS2-3Thi-BztA-GlnR*3-Ala-Ala-Arg-Ala-Ala-Ala-Ala-NH2 [I-1155] | < 50 nM
38 | Ac-PL3-Asp-Npg-B5-Asp-3COOHF-Aib-Ala-Phe-Lys*3-PyrS2-3Thi-BztA-GlnR*3-Ala-Ala-Arg-Ala-Ala-Ala-Arg-NH2 [I-1157] | < 50 nM
39 | Ac-PL3-Asp-Npg-B5-Asp-3COOHF-Aib-Ala-Phe-Lys*3-PyrS2-3Thi-BztA-GlnR*3-Ala-Ala-GlnR**3-Ala-Ala-Ala-Lys**3-NH2 [I-1159] | < 50 nM
40 | Ac-PL3-Asp-Npg-B5-Asp-3COOHF-Aib-Ala-Phe-Lys*3-PyrS2-3Thi-BztA-GlnR*3-Ala-Ala-Lys-Ala-Ala-Ala-Lys-NH2 [I-1158] | < 50 nM

Row | Substance | IC50
41 | Ac-PL3-Asp-Npg-B5-Asp-3COOHF-Aib-Ala-Phe-Lys*3-PyrS2-3Thi-BztA-GlnR*3-Ala-Ala-[Ac]Lys-NH2 [I-1392] | < 50 nM
42 | Ac-PL3-Asp-Npg-B5-Asp-3COOHF-Aib-Ala-Phe-Lys*3-PyrS2-3Thi-BztA-GlnR*3-Ala-Ala-[mPEG4]Lys-NH2 [I-1402] | 50 to 200 nM
43 | Ac-PL3-Asp-Npg-B5-Asp-3COOHF-Aib-Ala-Phe-Lys*3-PyrS2-3Thi-BztA-GlnR*3-Ala-Ala-[mPEG8]Lys-NH2 [I-1403] | < 50 nM
44 | Ac-PL3-Asp-Npg-B5-Asp-3COOHF-Aib-Ala-Phe-Lys*3-PyrS2-3Thi-BztA-GlnR*3-Ala-Ala-[mPEG16]Lys-NH2 [I-1404] | < 50 nM
45 | Ac-PL3-Asp-Npg-B5-Asp-3COOHF-Aib-Ala-Phe-Lys*3-PyrS2-3Thi-BztA-GlnR*3-Ala-Arg-Ala-Ala-Ala-Arg-Ala-NH2 [I-1156] | < 50 nM
46 | Ac-PL3-Asp-Npg-B5-Asp-3COOHF-Aib-Ala-Phe-Lys*3-PyrS2-3Thi-BztA-GlnR*3-Ala-NHMe [I-1400] | < 50 nM
47 | Ac-PL3-Asp-Npg-B5-Asp-3COOHF-Aib-Ala-Phe-Lys*3-PyrS2-3Thi-BztA-GlnR*3-Leu-Ser-Leu-NH2 [I-466] | < 50 nM
48 | Ac-PL3-Asp-Npg-B5-Asp-3COOHF-Aib-Ala-Phe-Lys*3-PyrS2-3Thi-BztA-GlnR*3-Thr-Ser-Ala-NH2 [I-1472] | < 50 nM
49 | Ac-PL3-Asp-Npg-B5-Asp-3COOHF-Aib-Ala-Phe-Lys*3-PyrS2-3Thi-BztA-GlnR*3-Thr-Ser-Leu-NH2 [I-1473] | < 50 nM
50 | Ac-PL3-Asp-Npg-B5-Asp-3COOHF-Aib-Ala-Phe-Lys*3-PyrS2-3Thi-BztA-GlnR*3-Thr-Ser-Leu-Pro-NH2 [I-1474] | < 50 nM
51 | Ac-PL3-Asp-Npg-B5-Asp-3COOHF-Aib-Ala-Phe-Lys*3-PyrS2-3Thi-BztA-GlnR*3-Thr-Ser-Pro-NH2 [I-1477] | < 50 nM
52 | Ac-PL3-Asp-Npg-B5-Asp-3COOHF-Aib-Ala-Phe-Lys*3-PyrS2-3Thi-BztA-GlnR*3-Thr-Ser-Thr-NH2 [I-1475] | < 50 nM
53 | Ac-PL3-Asp-Npg-B5-Asp-3COOHF-Aib-Ala-Phe-Lys*3-PyrS2-3Thi-BztA-GlnR*3-Thr-Ser-Thr-Pro-NH2 [I-1476] | < 50 nM
54 | Ac-PL3-Asp-Npg-B5-Asp-3COOHF-Aib-Ala-Phe-Lys*3-PyrS2-3Thi-BztA-GlnR*3-Val-Ala-NH2 [I-403] | < 50 nM
55 | Ac-PL3-Asp-Npg-B5-Asp-3COOHF-Aib-Ala-Phe-Lys*3-PyrS2-3Thi-BztA-GlnR*3-Val-Ser-Ala-NH2 [I-1478] | < 50 nM
56 | Ac-PL3-Asp-Npg-B5-Asp-3COOHF-Aib-Ala-Phe-Lys*3-PyrS2-3Thi-BztA-GlnR*3-Val-Ser-Leu-NH2 [I-1479] | < 50 nM
57 | Ac-PL3-Asp-Npg-B5-Asp-3COOHF-Aib-Ala-Phe-Lys*3-PyrS2-3Thi-BztA-GlnR*3-Val-Ser-Leu-Pro-NH2 [I-1480] | < 50 nM
58 | Ac-PL3-Asp-Npg-B5-Asp-3COOHF-Aib-Ala-Phe-Lys*3-PyrS2-3Thi-BztA-GlnR*3-Val-Ser-Pro-NH2 [I-1483] | < 50 nM
59 | Ac-PL3-Asp-Npg-B5-Asp-3COOHF-Aib-Ala-Phe-Lys*3-PyrS2-3Thi-BztA-GlnR*3-Val-Ser-Thr-NH2 [I-1481] | < 50 nM
60 | Ac-PL3-Asp-Npg-B5-Asp-3COOHF-Aib-Ala-Phe-Lys*3-PyrS2-3Thi-BztA-GlnR*3-Val-Ser-Thr-Pro-NH2 [I-1482] | < 50 nM
